Tested on: various murine tumors

CC1(C)C(/C=C/C=C/C=C/C=C2\N(CCCCS(=O)(=O)O)c3ccc4ccccc4c3C2(C)C)=[N+](CCCCS(=O)(=O)[O-])c2ccc3ccccc3c21 [Indocyanine Green] was tested, and the “Chemotherapeutic effect after i.t. administration” value was “no chemotherapeutic effect was evidenced”.

From US8557298B2, “Medicaments for chemotherapeutic treatment of disease” (Provectus Pharmatech, Inc., priority 1998, dated 2013)
